# Experiments:
# Protein sequences, listed by entry. Tags and fused reporters are not part of them. Residues count along the entry.
# UniProt P32305, 45-448: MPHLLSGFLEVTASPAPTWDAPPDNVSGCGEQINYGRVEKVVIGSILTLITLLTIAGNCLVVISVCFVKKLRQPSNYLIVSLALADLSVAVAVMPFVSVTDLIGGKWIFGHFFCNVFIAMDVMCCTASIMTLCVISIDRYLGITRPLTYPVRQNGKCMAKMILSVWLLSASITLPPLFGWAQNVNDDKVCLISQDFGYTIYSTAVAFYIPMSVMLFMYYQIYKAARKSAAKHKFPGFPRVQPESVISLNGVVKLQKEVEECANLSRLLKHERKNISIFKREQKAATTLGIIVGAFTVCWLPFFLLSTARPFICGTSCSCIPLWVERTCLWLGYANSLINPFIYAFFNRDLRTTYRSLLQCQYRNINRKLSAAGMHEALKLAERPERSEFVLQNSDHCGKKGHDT
# [1] = molecular target: T1, PCT-65 receptor (Rattus norvegicus, UniProt P32305); assay: Competition binding to PCT-65 receptor (radioligand not specified)
# T1 construct: expressed in transfected cells; host or cells: COS-7 cells (transient, calcium phosphate, pSRα-65)
# [2] = molecular target: T1, PCT-65 receptor; assay: [3H]-LSD competition binding to PCT-65 receptor in membranes of transfected COS-7 cells; settings: competing with [3H]-LSD (1.5-2.2 nM), COS-7 membranes, pH 7.4, 37 °C, 60 min; geometric mean ± SEM (n=3)
# Text: (§1) This plasmid construct (pSRα-65) was introduced into COS-7 cells by calcium phosphate-mediated transfection.
# [3] = molecular target: T1, PCT-65 receptor; assay: [3H]-5-HT competition binding to PCT-65 receptor in membranes of transfected COS-7 cells; settings: competing with [3H]-5-HT (1 nM), COS-7 membranes, 37 °C; geometric mean ± SEM (n=3)
# Procedure: as §1
# Specifically, transfected cells were scraped into PBS with 5 mM EDTA, spun, polytroned, spun, suspended in 100 mM Tris, 20 mM MgSO4, 1 mM EDTA, pH7.7. 0.5 ml of this solution containing 10-25 μg protein was added to 0.5 ml of a 2 mM ascorbic acid solution containing the ligand and drugs and incubated for 30 min at 37° C. Filtration was performed on GF/C paper (0.1% PEI solution pre-treatment) with a 10 ml rinse.
Structure (SMILES),affinity for PCT-65 (in words) ([1]; expressed in mammalian cells (COS-7)),Ki [2] [nM],Ki [3] [nM],"Ki ([1]; radioligand not given, read-out: Ki (compounds not in Table 1)) [nM]"
CSc1ccc2c(c1)C(N1CCN(C)CC1)Cc1ccccc1S2 (centres unmarked) [Methiothepin],relatively high affinity,1.03 ± 0.16,0.38 ± 0.18,
COc1ccc2[nH]cc(CCN)c2c1 [5-Methoxytryptamine],,,0.57 ± 0.03,
NC[C@H](O)c1ccc(O)c(O)c1 [Norepinephrine],,,,> 1300

# Source: patent US5914236A, “PCT-65 serotonin receptor” (United States of America, priority 1995, dated 1999)
